ChEMBL document CHEMBL6087474, “Discovery of an Efficacious RET PROTAC Degrader with Enhanced Antiproliferative Activity against Resistant Cancer Cells Harboring RET Solvent-Front Mutations” (J Med Chem, 2025)

Key:
Assay type in all cases: cell-based
Conditions in all cases: Homo sapiens
BaF3 [1] = assay: Inhibition of RET (unknown origin) phosphorylation in mouse BaF3 cells stably expressing KIF5B-RET-G810R mutant assessed as fold change in phosphorylated RET protein level at 100 nM measured after 6 hrs by Western blot analysis
BaF3 [2] = assay: PROTAC activity at CRBN/KIF5B-RET (unknown origin) expressed in mouse BaF3 cells assessed as induction of RET degradation by measuring fold change at 3.7 nM measured after 6 hrs by Western blot analysis
BaF3 [3] = assay: Inhibition of RET (unknown origin) phosphorylation in mouse BaF3 cells stably expressing KIF5B-RET-V804M mutant assessed as fold change in phosphorylated RET protein level at 11.1 nM measured after 6 hrs by Western blot analysis
BaF3 [4] = assay: PROTAC activity at CRBN/KIF5B-RET (unknown origin) expressed in mouse BaF3 cells assessed as induction of RET degradation by measuring fold change at 30 nM measured after 4 hrs by Western blot analysis
BaF3 [5] = assay: PROTAC activity at CRBN/KIF5B-RET (unknown origin) expressed in mouse BaF3 cells assessed as induction of RET degradation by measuring fold change at 30 nM preincubated with compound for 2 hrs followed by compound washout and measured after 4 hrs by Western blot analysis
BaF3 [6] = assay: Inhibition of Shc (unknown origin) phosphorylation in mouse BaF3 cells stably expression KIF5B-RET G810C mutant assessed as fold change in phosphorylated Shc protein level at 11.1 nM measured after 6 hrs by Western blot analysis
BaF3 [7] = assay: Inhibition of Shc (unknown origin) phosphorylation in mouse BaF3 cells stably expression KIF5B-RET G810C mutant assessed as fold change in phosphorylated Shc protein level at 33.3 nM measured after 6 hrs by Western blot analysis
BaF3 [8] = assay: PROTAC activity at CRBN/KIF5B-RET (unknown origin) expressed in mouse BaF3 cells assessed as induction of RET degradation by measuring fold change at 30 nM measured after 12 hrs by Western blot analysis
BaF3 [9] = assay: Inhibition of Shc (unknown origin) phosphorylation in mouse BaF3 cells stably expression KIF5B-RET G810R mutant assessed as fold change in phosphorylated Shc protein level at 300 nM measured after 6 hrs by Western blot analysis
BaF3 [10] = assay: PROTAC activity at CRBN/KIF5B-RET (unknown origin) expressed in mouse BaF3 cells assessed as induction of RET degradation by measuring fold change at 30 nM preincubated with selpercatinib for 2 hrs followed by compound addition and measured after 6 hrs by Western blot analysis
BaF3 [11] = assay: Inhibition of Shc (unknown origin) phosphorylation in mouse BaF3 cells stably expression KIF5B-RET G810R mutant assessed as fold change in phosphorylated Shc protein level at 33.3 nM measured after 6 hrs by Western blot analysis
BaF3 [12] = assay: PROTAC activity at CRBN/KIF5B-RET (unknown origin) expressed in mouse BaF3 cells assessed as induction of RET degradation by measuring fold change at 11.1 nM measured after 6 hrs by Western blot analysis
BaF3 [13] = assay: PROTAC activity at CRBN/KIF5B-RET (unknown origin) expressed in mouse BaF3 cells assessed as induction of RET degradation by measuring fold change at 30 nM measured after 0.5 hrs in presence of cycloheximide by Western blot analysis
BaF3 [14] = assay: PROTAC activity at CRBN/KIF5B-RET (unknown origin) expressed in mouse BaF3 cells assessed as induction of RET degradation by measuring fold change at 900 nM measured after 6 hrs by Western blot analysis
BaF3 [15] = assay: PROTAC activity at CRBN/KIF5B-RET (unknown origin) expressed in mouse BaF3 cells assessed as induction of RET degradation by measuring fold change at 30 nM preincubated with compound for 2 hrs followed by compound washout and measured after 24 hrs by Western blot analysis
BaF3 [16] = assay: PROTAC activity at CRBN/KIF5B-RET (unknown origin) expressed in mouse BaF3 cells assessed as induction of RET degradation by measuring fold change at 30 nM measured after 12 hrs in presence of cycloheximide by Western blot analysis
BaF3 [17] = assay: PROTAC activity at CRBN/KIF5B-RET (unknown origin) expressed in mouse BaF3 cells assessed as induction of RET degradation by measuring fold change at 30 nM preincubated with lenalidomide for 2 hrs followed by compound addition and measured after 6 hrs by Western blot analysis
BaF3 [18] = assay: Inhibition of Shc (unknown origin) phosphorylation in mouse BaF3 cells stably expression wildtype KIF5B-RET assessed as fold change in phosphorylated Shc protein level at 300 nM measured after 6 hrs by Western blot analysis
BaF3 [19] = assay: Inhibition of RET (unknown origin) phosphorylation in mouse BaF3 cells stably expressing KIF5B-RET-G810C mutant assessed as fold change in phosphorylated RET protein level at 11.1 nM measured after 6 hrs by Western blot analysis
BaF3 [20] = assay: PROTAC activity at CRBN/KIF5B-RET (unknown origin) expressed in mouse BaF3 cells assessed as induction of RET degradation by measuring fold change at 30 nM preincubated with compound for 2 hrs followed by compound washout and measured after 2 hrs by Western blot analysis
BaF3 [21] = assay: PROTAC activity at CRBN/KIF5B-RET (unknown origin) expressed in mouse BaF3 cells assessed as induction of RET degradation by measuring fold change at 100 nM measured after 6 hrs by Western blot analysis
BaF3 [22] = assay: Inhibition of Shc (unknown origin) phosphorylation in mouse BaF3 cells stably expression KIF5B-RET V804M mutant assessed as fold change in phosphorylated Shc protein level at 33.3 nM measured after 6 hrs by Western blot analysis
BaF3 [23] = assay: Inhibition of RET (unknown origin) phosphorylation in mouse BaF3 cells stably expressing wildtype KIF5B-RET fusion protein assessed as fold change in phosphorylated RET protein level at 300 nM measured after 6 hrs by Western blot analysis
BaF3 [24] = assay: Inhibition of Shc (unknown origin) phosphorylation in mouse BaF3 cells stably expression KIF5B-RET V804M mutant assessed as fold change in phosphorylated Shc protein level at 300 nM measured after 6 hrs by Western blot analysis
BaF3 [25] = assay: PROTAC activity at CRBN/KIF5B-RET (unknown origin) expressed in mouse BaF3 cells assessed as induction of RET degradation by measuring fold change at 30 nM measured after 4 hrs in presence of cycloheximide by Western blot analysis
BaF3 [26] = assay: PROTAC activity at CRBN/KIF5B-RET (unknown origin) expressed in mouse BaF3 cells assessed as induction of RET degradation by measuring fold change at 30 nM measured after 1 hrs in presence of cycloheximide by Western blot analysis
BaF3 [27] = assay: PROTAC activity at CRBN/KIF5B-RET (unknown origin) expressed in mouse BaF3 cells assessed as induction of RET degradation by measuring fold change at 30 nM measured after 8 hrs in presence of cycloheximide by Western blot analysis

In the case of `COc1ccc(CN2C3CC2CN(c2ccc(-c4cc(-c5cnn(C6CCN(CCCCCC#Cc7cccc8c7CN(C7CCC(=O)NC7=O)C8=O)CC6)c5)cn5ncc(C#N)c45)cn2)C3)cn1` (configuration not stated), the fold change (FC) (BaF3 [1]) is reported as 0.9, the fold change (FC) (BaF3 [2]) is reported as 0.5 and the fold change (FC) (BaF3 [3]) is reported as 0.4. The fold change (FC) (BaF3 [4]) was 0.4, the fold change (FC) (BaF3 [5]) was 0.9 and the fold change (FC) (BaF3 [6]) was 0.8. The fold change (FC) (BaF3 [7]) was 0.7, the fold change (FC) (BaF3 [8]) was 0.5 and the fold change (FC) (BaF3 [9]) was 1. For the same molecule, the fold change (FC) (BaF3 [10]) was 1, the fold change (FC) (BaF3 [11]) was 1 and the fold change (FC) (BaF3 [12]) was 0.4. For the same molecule, the fold change (FC) (BaF3 [13]) was 0.6, the fold change (FC) (BaF3 [14]) was 0.2 and the fold change (FC) (BaF3 [15]) was 1. The fold change (FC) (BaF3 [16]) was 0.4, the fold change (FC) (BaF3 [17]) was 0.9 and the fold change (FC) (BaF3 [18]) was 0.5. It also gave a fold change (FC) (BaF3 [19]) of 0.8, a fold change (FC) (BaF3 [20]) of 0.7 and a fold change (FC) (BaF3 [21]) of 0.1. The fold change (FC) (BaF3 [22]) was 0.4, the fold change (FC) (BaF3 [23]) was 0.2 and the fold change (FC) (BaF3 [24]) was 0.3. It also gave a fold change (FC) (BaF3 [25]) of 0.3, a fold change (FC) (BaF3 [26]) of 0.4 and a fold change (FC) (BaF3 [27]) of 0.3.
